1 compound from patent publication US20220226340A1, “CASEIN KINASE 1 INHIBITORS FOR USE IN THE TREATMENT OF DISEASES RELATED TO DUX4 EXPRESSION SUCH AS MUSCULAR DYSTROPHY AND CANCER” (Facio Intellectual Property B.V., priority 2019, published 2022) can be followed below.

The chains behind the UniProt entries cited, without tags or fusion partners. Where a name states a change or a piece, a line headed by the entry shows the natural chain unless it says otherwise.
UniProt P48730: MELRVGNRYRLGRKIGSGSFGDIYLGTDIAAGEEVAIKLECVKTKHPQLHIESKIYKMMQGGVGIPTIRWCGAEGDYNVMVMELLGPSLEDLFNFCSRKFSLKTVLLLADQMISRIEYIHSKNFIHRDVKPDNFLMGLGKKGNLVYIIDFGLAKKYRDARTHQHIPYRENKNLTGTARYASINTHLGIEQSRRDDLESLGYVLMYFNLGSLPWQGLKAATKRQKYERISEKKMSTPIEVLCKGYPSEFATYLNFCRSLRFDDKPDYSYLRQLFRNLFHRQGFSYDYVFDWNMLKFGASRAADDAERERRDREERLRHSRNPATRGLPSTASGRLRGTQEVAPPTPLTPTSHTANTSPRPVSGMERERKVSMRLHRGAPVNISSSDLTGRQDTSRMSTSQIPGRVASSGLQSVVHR
UniProt P49674: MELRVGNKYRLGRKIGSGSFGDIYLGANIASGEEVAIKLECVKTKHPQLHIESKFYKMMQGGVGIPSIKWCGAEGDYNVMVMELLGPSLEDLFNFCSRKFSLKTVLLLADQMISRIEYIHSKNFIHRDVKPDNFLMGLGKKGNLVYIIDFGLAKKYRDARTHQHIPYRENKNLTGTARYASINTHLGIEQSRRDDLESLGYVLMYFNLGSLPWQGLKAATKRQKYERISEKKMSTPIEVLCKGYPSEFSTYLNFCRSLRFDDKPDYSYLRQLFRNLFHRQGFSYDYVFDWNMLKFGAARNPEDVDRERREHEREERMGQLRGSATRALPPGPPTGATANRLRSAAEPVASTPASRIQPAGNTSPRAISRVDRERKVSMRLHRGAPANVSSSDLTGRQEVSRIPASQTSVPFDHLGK

Read-outs that look alike come from different tables or passages of the source.

The target in one assay is CK1δ (Homo sapiens, UniProt P48730). The assay is described as follows: CK1δ inhibition IC50. Conditions: read-out: CK1 d IC50. It counts as biochemical.
A further assay concerns the target CK1ε (Homo sapiens, UniProt P49674). The experiment in a line: CK1ε inhibition IC50. It counts as biochemical. Particulars: read-out: CK1 e IC50.

For orientation: IC50 means the point on the concentration scale where inhibition reaches its midpoint.

`CN1Cc2nccc(-c3cn(C)nc3-c3ccc(F)cc3)c2C1=O` [Nr. 5]: the IC50 came out at 30.7 nM at CK1δ (Table 3), 30.7 nM at CK1δ (Table 4), 83.6 nM at CK1ε (Table 3) and 83.6 nM at CK1ε (Table 4).
